Test results as given in paper PMC11744769, “Modulation of the mechanism of action of antibacterial silver N-heterocyclic carbene complexes by variation of the halide ligand” (RSC Advances, 2025).

The chains behind the UniProt entries cited, without tags or fusion partners. Residues count along the entry.
UniProt P00722, 2-1024: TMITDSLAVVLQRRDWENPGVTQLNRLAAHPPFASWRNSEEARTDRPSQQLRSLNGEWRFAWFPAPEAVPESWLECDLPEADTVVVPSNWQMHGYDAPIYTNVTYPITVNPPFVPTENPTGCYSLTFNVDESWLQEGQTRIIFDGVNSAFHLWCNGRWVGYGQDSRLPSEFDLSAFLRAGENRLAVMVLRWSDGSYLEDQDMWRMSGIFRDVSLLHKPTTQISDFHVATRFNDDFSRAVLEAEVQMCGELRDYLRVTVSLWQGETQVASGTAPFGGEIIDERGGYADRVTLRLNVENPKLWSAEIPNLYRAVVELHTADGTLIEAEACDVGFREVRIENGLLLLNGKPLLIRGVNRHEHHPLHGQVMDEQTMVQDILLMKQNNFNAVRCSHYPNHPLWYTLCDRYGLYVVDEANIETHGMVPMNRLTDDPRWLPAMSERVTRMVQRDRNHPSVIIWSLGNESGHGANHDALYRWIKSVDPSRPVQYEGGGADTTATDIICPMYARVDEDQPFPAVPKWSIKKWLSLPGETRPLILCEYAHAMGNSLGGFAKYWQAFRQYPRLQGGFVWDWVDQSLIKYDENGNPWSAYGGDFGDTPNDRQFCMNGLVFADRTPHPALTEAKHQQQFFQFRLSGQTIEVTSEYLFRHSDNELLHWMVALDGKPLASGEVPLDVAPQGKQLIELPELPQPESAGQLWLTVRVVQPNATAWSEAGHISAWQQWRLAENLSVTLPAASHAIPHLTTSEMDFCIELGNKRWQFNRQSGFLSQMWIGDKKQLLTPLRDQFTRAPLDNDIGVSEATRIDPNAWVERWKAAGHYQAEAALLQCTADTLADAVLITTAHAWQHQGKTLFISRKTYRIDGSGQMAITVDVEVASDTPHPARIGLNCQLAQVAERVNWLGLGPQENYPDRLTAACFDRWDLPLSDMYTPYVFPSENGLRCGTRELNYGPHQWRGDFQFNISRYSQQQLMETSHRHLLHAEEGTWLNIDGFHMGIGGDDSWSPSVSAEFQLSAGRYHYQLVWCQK

Molecular target: T1, β-galactosidase (Escherichia coli, UniProt P00722)
T1 construct: gene lacZ

Row | SMILES | ONPG hydrolysis in lysed E. coli cells with 30 μM compound
1 | CC(C)n1[c]([Ag-][Cl])[n+](Cc2ccccn2)c2ccccc21 [1-Cl] | 1-Cl, 2-Cl and silver nitrate completely blocked OPNG hydrolysis
2 | COCCn1[c]([Ag-][Cl])[n+](Cc2ccccn2)c2ccccc21 [2-Cl] | 1-Cl, 2-Cl and silver nitrate completely blocked OPNG hydrolysis
